Experimental data published in patent US20150018396A1, “PREVENTION AND TREATMENT OF RESPIRATORY INFECTION WITH PEROXISOME PROLIFERATOR ACTIVATOR RECEPTOR DELTA AGONIST” (PRESIDENT AND FELLOWS OF HARVARD COLLEGE, priority 2012, published 2015).

System: S. pneumoniae
Test: In vivo bacteria clearance assay (bacterial counts in bronchoalveolar lavage fluid)
Parameters: species or system mouse
Details: wt mice treated for 3 days, lavage fluid 24 hours post-infection
Method: Mice were gavaged with GW501516 (4 mg/kg/day) daily for 3 days prior to and every other day after infection. Mice were infected with 5×10^5 CFU of S. pneumoniae. […] Twenty-four hours post-infection, lavage fluid was isolated and analyzed for bacterial counts. […] Mice were gavaged with GW501516 for three days. […] Mice were gavaged with GW501516 for 3 days. Alveolar macrophages were isolated and ROS was determined using FcOxyburst. Data are presented as mean±SEM. *p<0.05.
Ppar-δ floxed animals were generated as described previously^33,34. Ppar-δ mice were crossed to lysozyme cre mice (Jackson laboratory) to generate Ppar-δ^mye−/− mice. Ppar-δ^fl/fl mice were used as wt controls. All mice were maintained on a C57BL/6 background. Mice used for survival studies in FIG. 5 were C57BL/6 mice purchased from Jackson Laboratory. Bone marrow from CSS-17 mice was provided by Dr. Colleen Croniger (Case Western Reserve University). For in vivo killing assays, mice were anesthetized with a ketamine/xylazine solution and infected intranasally with 10^6 CFU S. pneumoniae. 24 hours post infection, mice were sacrificed with isofluorane and Balf was extracted^30. For survival experiments with Ppar-δ^mye−/− mice, animals were infected intranasally with 10^5 CFU S. pneumoniae. C57BL/6 mice used for survival experiments with ligand treatment were infected with 5×10^5 CFU. […]

Cc1cc(SCc2sc(-c3ccc(C(F)(F)F)cc3)nc2C)ccc1OCC(=O)O [GW501516]
bacteria counts in Balf: substantially lower
